Test: Degradation of bromopicrin in soil (HPLC, GC-MS)
Conditions: 5 mg bromopicrin to 1,000 grams Rehovot sand soil; 0.5, 3 and 7 days

## O=[N+]([O-])C(Br)Br
  generation as degradation product of bromopicrin in soil: generated immediately and then dissipates to some extent
